Experimental data reported in ChEMBL document CHEMBL1649565, “Besifloxacin, a novel fluoroquinolone, has broad-spectrum in vitro activity against aerobic and anaerobic bacteria” (Antimicrob Agents Chemother, 2009).

Test system: Streptococcus sp.
Assay: Antibacterial activity against Lancefield Streptococcus sp. group F assessed as percent susceptible isolates by CLSI M100-S18 method
Assay type: functional

Question: `CC[C@H]1OC(=O)[C@H](C)[C@@H](O[C@H]2C[C@@](C)(OC)[C@@H](O)[C@H](C)O2)[C@H](C)[C@@H](O[C@@H]2O[C@H](C)C[C@H](N(C)C)[C@H]2O)[C@](C)(O)C[C@@H](C)CN(C)[C@H](C)[C@@H](O)[C@]1(C)O` [AZITHROMYCIN] was tested. Which Activity did it give?
Answer: 98%
